From patent US6596312B1, “Hydrolyzed cellulose granulations of salts of drugs” (R.P. Scherer Technologies, Inc., priority 1999, dated 2003)

Assay: Solubility of ibuprofen forms as a function of pH (FIG. 1)
Assay type: physicochemical
Conditions: pH below about 6.0 (FIG. 1)

dissolution when the pH is below about 6.0: no appreciable dissolution
SMILES: CC(C)Cc1ccc(C(C)C(=O)O)cc1 (stereo not shown) [unprocessed ibuprofen, ibuprofen]
